For series [1], the target named is electric-eel AChE (Electrophorus electricus, UniProt O42275). As to the kind of experiment: In vitro acetylcholinesterase inhibition. To be noted: pH 7.5, 25 °C, mean n > 3. Type of series: biochemical.
The subject of series [2] is Artemia salina larvae. In words: Brine shrimp lethality. The conditions noted are these: A. salina nauplii; 95% confidence limits in parentheses.

Sequences of proteins named here, by UniProt entry; tags and fusion partners are left off. Residues count along the entry.
UniProt O42275, 24-633: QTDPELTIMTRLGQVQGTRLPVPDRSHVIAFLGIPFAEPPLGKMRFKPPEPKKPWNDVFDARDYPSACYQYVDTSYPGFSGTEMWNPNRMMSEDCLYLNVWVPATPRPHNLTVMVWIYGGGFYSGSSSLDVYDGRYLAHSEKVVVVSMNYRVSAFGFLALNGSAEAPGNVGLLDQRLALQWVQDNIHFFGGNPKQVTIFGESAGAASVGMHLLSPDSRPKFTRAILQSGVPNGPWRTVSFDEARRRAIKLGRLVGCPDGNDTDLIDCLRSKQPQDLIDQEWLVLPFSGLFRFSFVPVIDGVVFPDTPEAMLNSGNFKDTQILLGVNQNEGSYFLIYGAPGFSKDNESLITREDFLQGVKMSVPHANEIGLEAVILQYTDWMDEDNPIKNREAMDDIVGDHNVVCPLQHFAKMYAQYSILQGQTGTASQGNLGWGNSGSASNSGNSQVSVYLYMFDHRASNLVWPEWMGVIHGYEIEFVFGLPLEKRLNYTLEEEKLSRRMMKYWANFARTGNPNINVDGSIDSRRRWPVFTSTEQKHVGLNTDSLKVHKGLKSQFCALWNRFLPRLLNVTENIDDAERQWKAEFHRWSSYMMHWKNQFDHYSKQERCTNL

Where “and” joins values, the source holds several entries; their conditions need not be identical. Identical values can stand only once.

Take Isoeugenol [Compound 8]: the “IC50 (µg/mL) ± SD, AChE inhibition” value in series [1] worked out at 29.78 ± 0.26 µg/mL. Further, the “LC50 (µg/mL), toxicity in Artemia salina larvae test” value in series [2] was 2033.1–6303.8 µg/mL and 2033.1 (1980.3–2086.0) µg/mL.

The record behind these values is paper PMC6864136 (Saudi Journal of Biological Sciences, 2018).
